# Where a name gives a salt, the structure may show the parent alone.
# Tested on: stomach mucous membrane blood flow
# Assay: Blood flow increasing activity on stomach mucous membrane (aminopyrin clearance method)
# Format: in vivo, Wistar male rats
# Conditions: 20 mg/kg intravenous
# Procedure: The cardia and pylorus of Wistar male rats (body weight, 250 to 300 g) which fasted 16 hours before abdominal section were ligated under urethane anesthesia, and a cannula was inserted into the preventriculus. In order to keep the stomach in normal state, the cannula was fixed externally and the incised abdomen was closed. Separately, a cannula filed with heparin was inserted into carotid artery.
# After operation, the inside of stomach was thoroughly washed with warm physiological saline solution, and 2 ml of a gastric juice (prepared by adjusting a 5% aqueous solution of mannitol to a pH 3.5 with 0.15 N hydrochloric acid, hereinafter the same) was poured into the stomach. Then, aminopyrin was administered via femoral vein at a dose of 30 mg/kg and 30 minutes thereafter aminopyrin was continuously administered at a rate of 6.6 mg/kg/hour. […]
# The collection of gastric juice was conducted at 15 minute intervals and 2 ml of the gastric juice was poured into the stomach between the collections. […] 2 ml of the gastric juice drawn (5 ml) was presented to quantitative determination. […]
# Then, the amount of aminopyrin in the blood sample and the gastric juice was determined quantitatively and the volume of blood flow in the stomach mucous membrane per gram of the stomach tissue per minute was calculated.
smiles,measurement,setting,value
"NC[C@H]1CC[C@H](C(=O)Oc2ccc(CCC(=O)O)cc2)CC1 [cetraxate hydrochloride, reference compound]",blood flow increasing activity (in words),15 and 30 minutes after administration,significant blood flow increasing activity
same,percent increase in blood flow,at 15 and 30 minutes,about 35%

# Source: patent US4443607A, “1(2H)-Isoquinolone compounds and acid addition salts thereof” (priority 1981, dated 1984)
